Laboratory results as given in patent US20150239981A1.

Amino acid sequences for entries named in this document (tags omitted). Residues count along the entry.
UniProt P12314, 16-288 limits assumed: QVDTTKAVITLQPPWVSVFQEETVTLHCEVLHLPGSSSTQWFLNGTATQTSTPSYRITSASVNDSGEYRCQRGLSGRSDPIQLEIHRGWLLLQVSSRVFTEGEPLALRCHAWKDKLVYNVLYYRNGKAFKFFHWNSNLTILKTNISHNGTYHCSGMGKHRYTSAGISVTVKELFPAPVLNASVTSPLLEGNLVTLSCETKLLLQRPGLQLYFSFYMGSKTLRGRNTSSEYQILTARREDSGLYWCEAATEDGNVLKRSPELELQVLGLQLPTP

Target: FcγRI (human) (UniProt P12314)
Test: SPR Biacore T100, FcγRI captured by pentaHis antibody, antibody as analyte 0-100 nM

## IgG1 P329G (antibody not named, Tables 2A and 2B)
  Kd: 6 nM
